From patent publication US9266877B2, “Apoptosis-inducing agents for the treatment of cancer and immune and autoimmune diseases” (priority 2011, dated 2016) come the findings set out here.

Sequences of proteins named here, by UniProt entry; tags and fusion partners are left off.
UniProt P10415, whole entry: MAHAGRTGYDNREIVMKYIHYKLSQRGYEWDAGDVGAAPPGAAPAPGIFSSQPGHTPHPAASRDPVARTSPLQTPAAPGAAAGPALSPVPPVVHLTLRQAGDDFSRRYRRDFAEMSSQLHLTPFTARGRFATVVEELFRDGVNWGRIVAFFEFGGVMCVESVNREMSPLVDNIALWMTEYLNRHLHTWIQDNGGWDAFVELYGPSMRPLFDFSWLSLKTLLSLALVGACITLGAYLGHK
UniProt Q07817, whole entry: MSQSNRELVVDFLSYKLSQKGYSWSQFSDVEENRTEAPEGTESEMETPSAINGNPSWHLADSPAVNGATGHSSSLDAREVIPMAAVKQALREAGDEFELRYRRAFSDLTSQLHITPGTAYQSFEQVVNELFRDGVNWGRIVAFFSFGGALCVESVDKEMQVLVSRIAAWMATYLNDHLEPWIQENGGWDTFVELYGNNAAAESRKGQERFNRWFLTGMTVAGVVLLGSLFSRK

Where two headings read alike, the source gives them in different places.

One series concerns the target Bcl-2 (Homo sapiens (Human), UniProt P10415). Kind of series: TR-FRET binding assay with GST-Bcl-2 substituted for GST-Bcl-xL.
A further series deals with Bcl-xL (Homo sapiens (Human), UniProt Q07817). In words: Time Resolved-Fluorescence Resonance Energy Transfer (TR-FRET) binding assay, competition with F-Bak. The following applies: competition with F-Bak probe, GST-Bcl-xL.
Series [1] can be described thus: Single Dose Pharmacokinetics, oral bioavailability. The class given is in vivo, Sprague-Dawley rats. As to conditions: Rat p.o. dose.

Usually Ki stands for the equilibrium dissociation constant of an inhibitor or competing ligand from its target. For the compound `Cc1c(-c2ccc(N3CCc4cccc(C(=O)Nc5nc6ccccc6s5)c4C3)nc2C(=O)O)cnn1CC1CCCCC1` [Example 43, 6-[8-(1,3-benzothiazol-2-ylcarbamoyl)-3,4-dihydroisoquinolin-2(1H)-yl]-3-[1-(cyclohexylmethyl)-5-methyl-1H-pyrazol-4-yl]pyridine-2-carboxylic acid], the Ki at Bcl-2 turned out to be 23 nM.
The same measure, in the same setting: the value for `Cc1c(-c2ccc(N3CCc4cccc(C(=O)Nc5nc6ccccc6s5)c4C3)nc2C(=O)O)cnn1Cc1ccccc1OCCN(C)C` [Example 49, 6-[8-(1,3-benzothiazol-2-ylcarbamoyl)-3,4-dihydroisoquinolin-2(1H)-yl]-3-(1-{2-[2-(dimethylamino)ethoxy]benzyl}-5-methyl-1H-pyrazol-4-yl)pyridine-2-carboxylic acid] was 39 nM; that for `Cc1c(-c2ccc(N3CCc4cccc(C(=O)Nc5nc6ccccc6s5)c4C3)nc2C(=O)O)cnn1CC1(C)CCCCC1` [Example 82, 6-[8-(1,3-benzothiazol-2-ylcarbamoyl)-3,4-dihydroisoquinolin-2(1H)-yl]-3-{5-methyl-1-[(1-methylcyclohexyl)methyl]-1H-pyrazol-4-yl}pyridine-2-carboxylic acid] was 33 nM.
Regarding `Cc1c(-c2ccc(N3CCc4cccc(C(=O)Nc5nc6ccccc6s5)c4C3)nc2C(=O)O)cnn1C[C@@H]1CC[C@@H]2C[C@H]1C2(C)C` [Example 85, 6-[8-(1,3-benzothiazol-2-ylcarbamoyl)-3,4-dihydroisoquinolin-2(1H)-yl]-3-(1-{[(1R,2R,5R)-6,6-dimethylbicyclo[3.1.1]hept-2-yl]methyl}-5-methyl-1H-pyrazol-4-yl)pyridine-2-carboxylic acid], on Bcl-xL, the Ki worked out at 0.7 nM.
`Cc1c(-c2ccc(N3CCc4cccc(C(=O)Nc5nc6ccccc6s5)c4C3)nc2C(=O)O)cnn1C[C@@H]1CC[C@H]2C[C@@H]1C2(C)C` [Example 86, 6-[8-(1,3-benzothiazol-2-ylcarbamoyl)-3,4-dihydroisoquinolin-2(1H)-yl]-3-(1-{[(1S,2R,5S)-6,6-dimethylbicyclo[3.1.1]hept-2-yl]methyl}-5-methyl-1H-pyrazol-4-yl)pyridine-2-carboxylic acid] showed a Ki at Bcl-xL of 2 nM.
`Cc1c(-c2ccc(N3CCc4cccc(C(=O)Nc5nc6ccccc6s5)c4C3)nc2C(=O)O)cnn1C[C@@H]1C[C@@H]2C=C[C@H]1C2` [Example 91, 6-[8-(1,3-benzothiazol-2-ylcarbamoyl)-3,4-dihydroisoquinolin-2(1H)-yl]-3-{1-[(1R,2R,4R)-bicyclo[2.2.1]hept-5-en-2-ylmethyl]-5-methyl-1H-pyrazol-4-yl}pyridine-2-carboxylic acid] displayed a Ki on Bcl-xL of 0.9 nM.
As to `Cc1c(-c2ccc(N3CCc4cccc(C(=O)Nc5nc6ccccc6s5)c4C3)nc2C(=O)O)cnn1Cc1ccccc1OCC1CCOCC1` [Example 99, 6-[8-(1,3-benzothiazol-2-ylcarbamoyl)-3,4-dihydroisoquinolin-2(1H)-yl]-3-{5-methyl-1-[2-(tetrahydro-2H-pyran-4-ylmethoxy)benzyl]-1H-pyrazol-4-yl}pyridine-2-carboxylic acid], on Bcl-2, the affinity, expressed as Ki, was 33 nM. Also, in series [1] (5 mpk), the “F (%), dose” value is 19, 5 mpk %.
Take `Cc1c(CC2CCCCC2)cccc1-c1ccc(N2CCc3cccc(C(=O)Nc4nc5ccccc5s4)c3C2)nc1C(=O)O` [Example 107, 6-[8-(1,3-benzothiazol-2-ylcarbamoyl)-3,4-dihydroisoquinolin-2(1H)-yl]-3-[3-(cyclohexylmethyl)-2-methylphenyl]pyridine-2-carboxylic acid]: affinity on Bcl-2 was put at a Ki of 56 nM.
On the same count and under the same terms, the figure for `O=C(Nc1nc2ccccc2s1)c1cccc2c1CN(c1ccc(-c3cccc(OC4CCCCC4)c3Cl)c(C(=O)O)n1)CC2` [Example 117, 6-[8-(1,3-benzothiazol-2-ylcarbamoyl)-3,4-dihydroisoquinolin-2(1H)-yl]-3-[2-chloro-3-(cyclohexyloxy)phenyl]pyridine-2-carboxylic acid] is 21 nM; for `Cc1c(-c2ccc(N3CCc4cccc(C(=O)Nc5nc6ccccc6s5)c4C3)nc2C(=O)O)cc(C#N)n1CC1CCCCC1` [Example 130, 6-[8-(1,3-benzothiazol-2-ylcarbamoyl)-3,4-dihydroisoquinolin-2(1H)-yl]-3-[5-cyano-1-(cyclohexylmethyl)-2-methyl-1H-pyrrol-3-yl]pyridine-2-carboxylic acid] it is 76 nM.
Compound `Cc1c(-c2ccc(N3CCc4cccc(C(=O)Nc5nc6ccccc6s5)c4C3)nc2C(=O)O)cc(C#N)n1CC1(N2CCCCC2)CCCCC1` [Example 131, 6-[8-(1,3-benzothiazol-2-ylcarbamoyl)-3,4-dihydroisoquinolin-2(1H)-yl]-3-(5-cyano-2-methyl-1-{[1-(piperidin-1-yl)cyclohexyl]methyl}-1H-pyrrol-3-yl)pyridine-2-carboxylic acid] showed a Ki on Bcl-xL below 0.1 nM.
The compound `COCCC1(Cn2ncc(-c3ccc(N4CCc5cccc(C(=O)Nc6nc7ccccc7s6)c5C4)nc3C(=O)O)c2C)CCCCCC1` [Example 134, 6-[8-(1,3-benzothiazol-2-ylcarbamoyl)-3,4-dihydroisoquinolin-2(1H)-yl]-3-(1-{[1-(2-methoxyethyl)cycloheptyl]methyl}-5-methyl-1H-pyrazol-4-yl)pyridine-2-carboxylic acid] came in with an inhibitory constant (Ki) on Bcl-2 of 24 nM.
On to `O=C(Nc1nc2ccccc2s1)c1cccc2c1CN(c1ccc(-c3ccc4c(c3)CCN(CC3CCCCC3)C4)c(C(=O)O)n1)CC2` [Example 137, 6-[8-(1,3-benzothiazol-2-ylcarbamoyl)-3,4-dihydroisoquinolin-2(1H)-yl]-3-[2-(cyclohexylmethyl)-1,2,3,4-tetrahydroisoquinolin-6-yl]pyridine-2-carboxylic acid], for which the Ki at Bcl-xL is 1.5 nM.
With `COCCC1(Cn2ncc(-c3ccc(N4CCc5cccc(C(=O)Nc6nc7ccccc7s6)c5C4)nc3C(=O)NS(C)(=O)=O)c2C)CCCCCC1` [Example 148, N-(1,3-benzothiazol-2-yl)-2-{5-(1-{[1-(2-methoxyethyl)cycloheptyl]methyl}-5-methyl-1H-pyrazol-4-yl)-6-[(methylsulfonyl)carbamoyl]pyridin-2-yl}-1,2,3,4-tetrahydroisoquinoline-8-carboxamide], the affinity at Bcl-2, expressed as Ki, was 75 nM.
For `Cc1c(-c2ccc(N3CCc4cccc(C(=O)Nc5nc6ccccc6s5)c4C3)nc2C(=O)O)cccc1N(C)c1ccccc1` [Example 156, 6-[8-(1,3-benzothiazol-2-ylcarbamoyl)-3,4-dihydroisoquinolin-2(1H)-yl]-3-{2-methyl-3-[methyl(phenyl)amino]phenyl}pyridine-2-carboxylic acid], the “F (%), dose” value in series [1] (1 mpk) is 39, 1 mpk %.
Same read-out and setting: the value for `COC1(Cn2ncc(-c3ccc(N4CCc5cccc(C(=O)Nc6nc7ccccc7s6)c5C4)nc3C(=O)O)c2C)CCCC(C)(C)C1` (stereo not shown) [Example 157, 6-[8-(1,3-benzothiazol-2-ylcarbamoyl)-3,4-dihydroisoquinolin-2(1H)-yl]-3-{1-[(1-methoxy-3,3-dimethylcyclohexyl)methyl]-5-methyl-1H-pyrazol-4-yl}pyridine-2-carboxylic acid] was 30, 1 mpk %.
On to `Cc1c(-c2ccc(N3CCc4cccc(C(=O)Nc5nc6ccccc6s5)c4C3)nc2C(=O)O)nnn1C[C@@H]1CC[C@H]2C[C@@H]1C2(C)C` [Example 158, 6-[8-(1,3-benzothiazol-2-ylcarbamoyl)-3,4-dihydroisoquinolin-2(1H)-yl]-3-(1-{[(1S,2R,5S)-6,6-dimethylbicyclo[3.1.1]hept-2-yl]methyl}-5-methyl-1H-1,2,3-triazol-4-yl)pyridine-2-carboxylic acid], for which the Ki at Bcl-xL was below 0.1 nM.
With `Cc1c(-c2ccc(N3CCc4cccc(C(=O)Nc5nc6ccccc6s5)c4C3)nc2C(=O)O)cccc1N(C)C1CCCC(C)(C)C1` (stereo not shown) [Example 159, 6-[8-(1,3-benzothiazol-2-ylcarbamoyl)-3,4-dihydroisoquinolin-2(1H)-yl]-3-{3-[(3,3-dimethylcyclohexyl)(methyl)amino]-2-methylphenyl}pyridine-2-carboxylic acid], the Ki at Bcl-2 (GST-Bcl-2, read-out: Ki, competition with F-Bak for the Bcl-2 binding site (TR-FRET)) was 272 nM.
In the case of `Cc1c(-c2ccc(N3CCc4cccc(C(=O)Nc5nc6ccccc6s5)c4C3)nc2C(=O)O)ccnc1N(C)C1CCCCC1` [Example 161, 6-[8-(1,3-benzothiazol-2-ylcarbamoyl)-3,4-dihydroisoquinolin-2(1H)-yl]-2′-[cyclohexyl(methyl)amino]-3′-methyl-3,4′-bipyridine-2-carboxylic acid], the Ki at Bcl-xL was below 0.1 nM.
Turning to `Cc1c(-c2ccc(N3CCc4cccc(C(=O)Nc5nc6ccccc6s5)c4C3)nc2C(=O)O)cc(C#N)n1CC1(N(C)C)CCCCC1` [Example 176, 6-[8-(1,3-benzothiazol-2-ylcarbamoyl)-3,4-dihydroisoquinolin-2(1H)-yl]-3-(5-cyano-1-{[1-(dimethylamino)cyclohexyl]methyl}-2-methyl-1H-pyrrol-3-yl)pyridine-2-carboxylic acid], the affinity on Bcl-2, expressed as Ki, was 177 nM.
On Bcl-2, `CNCCOC1(Cn2ncc(-c3ccc(N4CCc5cccc(C(=O)Nc6nc7ccccc7s6)c5C4)nc3C(=O)O)c2C)CCCC(C)(C)C1` (stereo not shown) [Example 185, 6-[8-(1,3-benzothiazol-2-ylcarbamoyl)-3,4-dihydroisoquinolin-2(1H)-yl]-3-[1-({3,3-dimethyl-1-[2-(methylamino)ethoxy]cyclohexyl}methyl)-5-methyl-1H-pyrazol-4-yl]pyridine-2-carboxylic acid] registered a Ki of 14 nM.
